# Values quoted from earlier work in patent US8999940B2, “Analogues of glucose-dependent insulinotropic polypeptide (GIP) modified at N-terminal” (Ipsen Pharma S.A.S., priority 2008, dated 2015).
# Conditions: unmodified GIP; Said and Mutt, 1970; cited from earlier work
substance,measurement,value
Glucose-dependent insulinotropic polypeptide [GIP],in vivo half-life,about 2 minutes
